# Experimental vapor pressure values from OPERA 2.9

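These are experimental values that the OPERA curators gathered from public databases to train and test their QSAR models. A listed value is a point estimate from one report or more. Method, purity and exact conditions of the single measurements are not given. A value may pool stereoisomers or salt forms, and the file does not say which form was measured. Some upstream entries may be estimates or bounds without being marked so.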

Vapor pressure is log10 of mmHg; the set covers 15 to 30 °C, mostly 20 to 25 °C. "n/a" marks a cell with nothing listed here.

SMILES,name,vapor pressure (log10 mmHg)
CCNc1cc2[o+]c3cc(NCC)c(C)cc3c(-c3ccccc3C(=O)OCC)c2cc1C.[Cl-],Rhodamine 6G,-12.98
CCCCCCCC/C=C\CCCCCCCC(=O)N(CCO)CCO,Oleic acid diethanolamide,-6.212
OCC1CCCCO1 (configuration not stated),(Oxan-2-yl)methanol,-1
CCC(CO)(CO)CO,"2-Ethyl-2-(hydroxymethyl)-1,3-propanediol",-4.348
C[C@@H]1[C@H](C)CC[C@H]1C (relative stereo),n/a,1.505
Fc1ccc(C(c2ccc(F)cc2)N2CCNCC2)cc1,1-(Bis(4-fluorophenyl)methyl)piperazine,-4.821
Clc1c(Cl)c(Cl)c2c(Cl)cccc2c1Cl,"1,2,3,4,5-Pentachloronaphthalene",-4.375
C=CC(=O)N1CCOCC1,4-(1-Oxo-2-propenyl)-morpholine,-1.91
CC(N)CCN (configuration not stated),"1,3-Butanediamine",0.653
CC(C)C(=O)OCC(C)(C)C(OC(=O)C(C)C)C(C)C (configuration not stated),"2,2,4-Trimethyl-1,3-pentanediol diisobutyrate",-2.01
Cc1ccc(C(C)N)cc1 (configuration not stated),1-(4-Methylphenyl)ethanamine,-0.708
Clc1cc(Cl)c2c(Cl)c(Cl)c(Cl)c(Cl)c2c1Cl,"1,2,3,4,5,6,8-Heptachloronaphthalene",-5.735
Clc1cc(Cl)c(Cl)c(-c2ccc(Cl)c(Cl)c2Cl)c1,"2,2',3,3',4,5'-Hexachlorobiphenyl",-5.504
O=C(O)CNC(CO)(CO)CO,"Glycine, N-[2-hydroxy-1,1-bis(hydroxymethyl)ethyl]-",-4.736
Brc1cc(Br)c(Oc2ccc(Br)c(Br)c2Br)cc1Br,"2,2',3,4,4',5'-Hexabromodiphenyl Ether",-8.553
O=C(O)c1ccc(O)cc1O,"2,4-Dihydroxybenzoic acid",-7.175
O=C([O-])CCC(=O)NCCCCC(NC(=O)CCC(=O)[O-])C(=O)O.[Ca+2] (configuration not stated),"N2,N6-Bis(3-carboxy-1-oxopropyl)-lysine calcium salt (1:1)",-4.882
CC(=O)c1ccncc1,4-Acetylpyridine,0.69
C=C(C)CCC,2-Methyl-1-pentene,2.29
O=C(O)CCCCC(S)CCS (configuration not stated),"6,8-Dihydrothioctic acid",-7.129
CCC(C)N[Si](C)(C)NC(C)CC (configuration not stated),"Silanediamine, 1,1-dimethyl-N,N'-bis(1-methylpropyl)-",-1.347
CCCCCCCCCCCCCCCCCCN,1-Octadecanamine,-4.103
Clc1ccc(-c2c(Cl)cccc2Cl)c(Cl)c1Cl,"2,2',3,4,6'-Pentachlorobiphenyl",-4.445
C=C(F)C(=O)OC,methyl 2-fluoroacrylate,1.724
CC(=O)C=O,Methyl glyoxal,1.275
Cn1ccnc1,1-Methylimidazole,-0.497
Clc1cc(-c2c(Cl)c(Cl)cc(Cl)c2Cl)c(Cl)c(Cl)c1Cl,"2,2',3,3',4,5,5',6'-Octachlorobiphenyl",-5.614
CNC(=O)Nc1nc2ccccc2s1,Benzthiazuron,-5.011
O=C(O)c1ccccn1,Picolinic acid,-3.676
CCCCCCCCCC(C)(C)SSC(C)(C)CCCCCCCCC,"Disulfide, di-tert-dodecyl",-5.791
O=C(Oc1ccccc1)n1c(C(F)(F)F)nc2cc(Cl)c(Cl)cc21,Fenazaflor,-4.284
C/C=C/C=C/C(=O)O,"2E,4E-Hexadienoic acid",-3.87
Clc1cc(Cl)cc(-c2c(Cl)c(Cl)c(Cl)c(Cl)c2Cl)c1,"2,3,3',4,5,5',6-Heptachlorobiphenyl",-5.666
CC=CCCC,n/a,2.176
CCO[Si](C)(CCCOCC1CO1)OCC (configuration not stated),3-(Methyldiethoxysilyl)propyl glycidyl ether,-2.502
Clc1cc(Cl)c(Oc2c(Cl)cc(Cl)c(Cl)c2Cl)c(Cl)c1,n/a,-7.896
CCCCCC(=O)OCC,Ethyl hexanoate,0.415
CC1=CCC(C(C)C)CC1 (configuration not stated),"Cyclohexene, 1-methyl-4-(1-methylethyl)-",0.021
Cc1oncc1C(=O)O,5-Methylisoxazole-4-carboxylic acid,-5.921
CCCCCCOC1O[C@H](CO)[C@@H](O)[C@H](O)[C@H]1O (stereo partly drawn),"D-Glucopyranoside, hexyl",-4.958
CC(C)COC(=O)/C=C\C(=O)OCC(C)C,Diisobutyl maleate,-1.385
CC(=O)NNC(C)=O,"N,N'-Diacetylhydrazine",-5.87
c1ccc(C2=NCCN2)cc1,"1H-Imidazole, 4,5-dihydro-2-phenyl-",-3.424
CO[Si](C)(C)CCCCl,(3-Chloropropyl)methoxydimethylsilane,-0.011
Clc1cc(Cl)c(Oc2cc(Cl)c(Cl)c(Cl)c2Cl)c(Cl)c1,"2,2',3,4,4',5,6'-Heptachlorodiphenyl ether",-5.975
c1ccc(Nc2cccc3ccccc23)cc1,N-Phenyl-1-naphthylamine,-5.092
CC(C)=NO,Acetoxime,0.259
NCC(=O)[O-].NCC(=O)[O-].[Ca+2],Calcium glycinate,-6.397
CCCCC(CC)COC(=O)CC(C)CC(C)(C)C (configuration not stated),"3,5,5-Trimethylhexanoic acid, 2-ethylhexyl ester",-3.179

The first 3 entries again:

| SMILES | name | vapor pressure (log10 mmHg) |
|---|---|---|
| CCNc1cc2[o+]c3cc(NCC)c(C)cc3c(-c3ccccc3C(=O)OCC)c2cc1C.[Cl-] | Rhodamine 6G | -12.98 |
| CCCCCCCC/C=C\CCCCCCCC(=O)N(CCO)CCO | Oleic acid diethanolamide | -6.212 |
| OCC1CCCCO1 (configuration not stated) | (Oxan-2-yl)methanol | -1 |

Data: OPERA 2.9 data sets, kmansouri/OPERA on GitHub.